{"sequences": {"note": "Protein sequences, listed by entry. Tags and fused reporters are not part of them. Lines headed by an entry give the natural chain unless they say otherwise; changes in a name come on top.", "UniProt Q9GZT9": "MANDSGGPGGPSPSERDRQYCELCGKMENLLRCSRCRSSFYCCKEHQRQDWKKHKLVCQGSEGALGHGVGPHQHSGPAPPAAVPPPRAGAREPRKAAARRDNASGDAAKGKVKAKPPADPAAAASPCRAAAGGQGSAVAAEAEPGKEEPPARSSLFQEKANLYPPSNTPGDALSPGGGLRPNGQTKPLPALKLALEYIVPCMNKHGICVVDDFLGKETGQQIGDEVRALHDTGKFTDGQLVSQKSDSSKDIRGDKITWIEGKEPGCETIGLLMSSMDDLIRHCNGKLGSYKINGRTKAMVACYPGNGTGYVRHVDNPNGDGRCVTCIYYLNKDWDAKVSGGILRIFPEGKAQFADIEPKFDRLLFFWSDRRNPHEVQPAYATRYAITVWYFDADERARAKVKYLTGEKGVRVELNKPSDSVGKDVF"}, "source": "ChEMBL document CHEMBL5331121", "about": "“Preferred Conformation-Guided Discovery of Potent and Orally Active HIF Prolyl Hydroxylase 2 Inhibitors for the Treatment of Anemia” (J Med Chem, 2023)", "biological_target": "Egl nine homolog 1 (Homo sapiens, UniProt Q9GZT9)", "experiment": "Binding affinity to […] PHD2 (181 to 426 residues) (unknown origin) by fluorescence polarization assay"}
{"smiles": "O=C(O)CNC(=O)c1ncc(-c2cccc(Cl)c2)cc1O", "values": [{"measurement": "IC50", "result": 257, "unit": "nM"}]}
